Target: Amine oxidase [flavin-containing] A (Homo sapiens, UniProt P21397)
Assay: Binding affinity to MAO-A (unknown origin) assessed as inhibition constant

Amino acid sequences for entries named in this document (tags omitted).
UniProt P21397, whole entry: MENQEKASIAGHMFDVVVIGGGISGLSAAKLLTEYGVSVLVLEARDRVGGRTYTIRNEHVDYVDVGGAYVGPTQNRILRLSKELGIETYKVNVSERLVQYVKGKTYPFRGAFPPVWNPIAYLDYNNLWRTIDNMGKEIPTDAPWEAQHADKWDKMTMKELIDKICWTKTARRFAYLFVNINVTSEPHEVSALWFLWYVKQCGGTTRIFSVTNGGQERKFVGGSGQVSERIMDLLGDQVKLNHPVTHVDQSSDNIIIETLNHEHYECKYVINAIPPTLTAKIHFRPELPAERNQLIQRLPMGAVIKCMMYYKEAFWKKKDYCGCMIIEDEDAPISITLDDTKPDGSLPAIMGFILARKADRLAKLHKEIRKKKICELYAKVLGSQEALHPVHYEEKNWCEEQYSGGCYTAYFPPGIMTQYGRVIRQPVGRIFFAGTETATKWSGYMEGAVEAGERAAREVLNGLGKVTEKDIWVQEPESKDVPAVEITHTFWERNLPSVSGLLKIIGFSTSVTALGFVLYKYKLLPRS

`C#CCN(C)Cc1ccccc1` [PARGYLINE] was tested, and the Ki was 13 µM.

— ChEMBL document CHEMBL5338737, “Lysine-Specific Demethylase 1 Promises to Be a Novel Target in Cancer Drug Resistance: Therapeutic Implications” (J Med Chem, 2023)
